Results reported in paper PMC7641332 (Nucleic Acids Research, 2020).

Molecular target: T1, 2× MBP-BRCA2CT-FLAG-His10 (human, UniProt P51587 2300-3418)
T1 sequence: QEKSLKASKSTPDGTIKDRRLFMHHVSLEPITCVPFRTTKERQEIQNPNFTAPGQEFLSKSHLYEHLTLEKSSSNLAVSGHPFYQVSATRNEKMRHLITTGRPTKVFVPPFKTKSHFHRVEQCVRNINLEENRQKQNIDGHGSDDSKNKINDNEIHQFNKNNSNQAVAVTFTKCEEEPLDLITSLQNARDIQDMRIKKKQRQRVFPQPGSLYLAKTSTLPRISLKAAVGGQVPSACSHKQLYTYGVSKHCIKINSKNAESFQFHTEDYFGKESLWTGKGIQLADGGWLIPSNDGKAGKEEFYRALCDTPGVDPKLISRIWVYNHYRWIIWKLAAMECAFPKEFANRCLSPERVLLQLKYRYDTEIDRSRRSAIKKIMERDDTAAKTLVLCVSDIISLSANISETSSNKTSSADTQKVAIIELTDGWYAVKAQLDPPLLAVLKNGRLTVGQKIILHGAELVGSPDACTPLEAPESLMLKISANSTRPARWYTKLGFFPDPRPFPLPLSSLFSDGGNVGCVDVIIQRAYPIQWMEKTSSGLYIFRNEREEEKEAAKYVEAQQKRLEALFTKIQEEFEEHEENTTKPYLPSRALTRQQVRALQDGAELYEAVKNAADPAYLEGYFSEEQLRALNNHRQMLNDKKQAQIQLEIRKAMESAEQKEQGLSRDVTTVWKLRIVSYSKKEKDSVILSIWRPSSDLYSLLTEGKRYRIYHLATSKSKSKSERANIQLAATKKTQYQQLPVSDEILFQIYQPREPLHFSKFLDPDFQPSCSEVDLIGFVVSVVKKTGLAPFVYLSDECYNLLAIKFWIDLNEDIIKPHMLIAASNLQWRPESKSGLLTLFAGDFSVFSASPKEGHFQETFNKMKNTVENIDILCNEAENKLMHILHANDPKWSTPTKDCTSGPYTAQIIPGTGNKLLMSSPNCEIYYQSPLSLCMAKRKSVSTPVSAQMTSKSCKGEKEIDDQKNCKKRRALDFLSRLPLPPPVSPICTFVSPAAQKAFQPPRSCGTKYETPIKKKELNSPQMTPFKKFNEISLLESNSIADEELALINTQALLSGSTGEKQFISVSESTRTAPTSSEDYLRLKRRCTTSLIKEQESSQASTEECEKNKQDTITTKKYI
Assay: pull-down

B1: Human DSS1 protein (natural protein)
chain: MSEKKQPVDLGLLEEDDEFEEFPAEDWAGLDEDEDAHVWEDNWDDDNVEDDFSNQLRAELEKHGYKMETS
- fold reduction of MBP-BRCA2CT bound to GST-BRCA2 with 1.5 μM DSS1: 11 fold
